Among the data in PubChem BioAssay AID456 (Sanford-Burnham Center for Chemical Genomics, 2006) are inhibition values, retold here.

The list shows a part of the results, in another mix than the full data. Measured potencies and affinities stand elsewhere. Activity calls are given as the source filed them.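 Rule for the calls: active = top tenth filtered wells with inhibition above zero that passed visual or statistical confirmation; inactive = the rest, including hits rejected on review.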

The assay is described as follows: suppression of endothelial VCAM-1 upregulation – imaging, high-content imaging, pooled HUVEC, TNFa stimulus (AID 456).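 Note: VCAM-1 immunofluorescence minus red nonspecific channel after plate median normalization.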 The settings on record: HUVEC TNFa-induced VCAM-1 surface expression, immunofluorescence imaging;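 compounds screened at 5 µM final in the well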.
On to `O=P(Nc1nccs1)(c1ccccc1)c1ccccc1`, for which the inhibition was inactive: 0%. Regarding `COP1(=S)c2c(C)nn(CCC#N)c2N=C(c2ccc(F)cc2)N1C` (stereo not given), the inhibition is inactive: 0%.

On to `O=C(COc1ccccc1)OC1CN2CCC1CC2` (stereo not given), for which the inhibition is inactive: 0%. As to `Cc1nn(-c2ccccc2)c2c1P(=O)(N1CCOCC1)N(C)C(c1ccccc1)=N2` (stereo not given), the inhibition was inactive: 0%. Regarding `CCOP1(=S)c2c(C)nn(CCC#N)c2N=C(c2ccccc2F)N1C` (stereo not given), the inhibition is inactive: 0%.

In general, inhibition refers to how much of the control response was suppressed.
